The list shows a part of the results, in another mix than the full data. Some tests of the compounds listed are not included; inactive here does not mean inactive elsewhere. Active and inactive are the calls of the source. Cut-off read from the data, not from the text of the source: active = activity change below about -80%; inconclusive = mostly about -51% to -80%; inactive = weaker than that.
% is set by controls: 0 for no effect and ±100 for the full control effect.

The target of the experiment is RAC-alpha serine/threonine-protein kinase (Homo sapiens) (UniProt P31749). Kind of experiment: HTS Assay for Inhibitors of Akt Phophorylation: Primary Screen. As to conditions: Neuro2A IGF-stimulated pAkt S473 HTRF, 20 min; at 50 µM; active compounds read low. An excerpt:
The serine/threonine protein kinase Akt (protein kinase B) regulates various cellular processes, including cell survival, growth, proliferation, migration and differentiation. It has been well established that Akt is activated through two essential steps involving membrane translocation and phosphorylation. Cytosolic Akt is recruited to the plasma membrane via the interaction between the PH domain and membrane PIP3 produced by phosphoinositide-3 kinase (PI3K) upon growth factor receptor stimulation. The membrane-Akt interaction results in conformational changes of Akt, enabling its activation through phosphorylation at T308 in the kinase domain and at S473 in the C-terminal hydrophobic motif by PDK1 and mTOR-rictor complex (mTORC2), respectively. […]
3 uL of Neuro2A cell suspension in DMEM containing 0.5% FBS and […] antibiotics mix was plated in a white solid bottom tissue culture-treated 1536-well plate (Greiner Bio-One, Monroe, NC) at 4,500 cells per well and incubated overnight at 37 deg C. […] The assay plates were incubated for 24 hours at ambient temperature, and the HTRF fluorescence was measured using Envision plate reader (PerkinElmer) with excitation at 330nm, emission at 615nm (Eu(3)-Cryptate donor signal) and 665nm (d2 acceptor signal). The ratio of […] was calculated for each well.
(TR-FRET usually uses a lanthanide donor and a delayed reading to cut background.)
Take `O=C(OC1CN2CCC1CC2)C(CO)(c1ccccc1)c1ccccc1` (configuration not stated): the activity change is inactive: 16.1%.

Take `CC(C)N1C(=O)CC2(CCN(CCOC(=O)C(O)(c3ccccc3)c3ccccc3)CC2)C1=O`: the activity change is inactive: 1.76%.

The record behind these values is PubChem BioAssay AID651550 (National Center for Advancing Translational Sciences (NCATS), 2012).
